Test results reported in patent US20240058343A1, “TREATMENT OF URTICARIA USING JAK INHIBITORS” (Incyte Corporation, priority 2022, published 2024).

Biological target: human JAK1 (a.a. 837-1142) (Homo sapiens, UniProt P23458)
Assay: In vitro JAK kinase assay (HTRF), JAK1
Type: biochemical
Details: 1 mM ATP

IC50: < 10 nM
SMILES: CN(C)Cc1cc(F)cc(OC2CCN(CC(CC#N)n3cc(-c4ncnc5[nH]ccc45)cn3)CC2)c1 (single isomer, unassigned) [compound 14, 4-(4-{3-[(dimethylamino)methyl]-5-fluorophenoxy}piperidin-1-yl)-3-[4-(7H-pyrrolo[2,3-d]pyrimidin-4-yl)-1H-pyrazol-1-yl]butanenitrile]
